# Measurements: patent US10465009B2, “BCMA antigen binding proteins” (Amgen Inc., priority 2012, dated 2019)
# Test system: KMS28PE
# Assay: CellTiter-Glo Luminescent Cell Viability Assay, KMS28PE
# Type: cell-based, human
# Experimental: The ADCs were tested for the ability to target and kill BCMA-expressing myeloma cells. The CellTiter-Glo® Luminescent Cell Viability Assay is a homogeneous method to determine the number of viable cells in culture based on quantitation of the ATP present, which signals the presence of metabolically active cells. The CellTiter-Glo® Assay is applicable to cytotoxicity assays (see http://www.promega.com/products/cell-health-assays/cell-viability-assays/celltiterglo-luminescent-cell-viability-assay/ for more information). The cell viability assay was used to assess the relative killing capacity of various ADCs on various multiple myeloma cell lines and B-cell lines. […] Luminescence was read on an EnVision™ Multilabel reader (PerkinElmer) or Analyst HT plate reader (LJL Biosciences). The data was analyzed and graphed using GraphPad Prism™ to determine the relative efficacy of the ADCs on various cancer cell lines.
# The 2A1CV5-MCC-DM1, 32B5-MCC-DM1 and 29C12-MCC-DM1 ADCs were tested for the ability to target and kill BCMA-expressing myeloma cells (H929). The CellTiter-Glo® Luminescent Cell Viability Assay is a homogeneous method to determine the number of viable cells in culture based on quantitation of the ATP present, which signals the presence of metabolically active cells. […] Luminescence was read on an EnVision™ Multilabel reader (PerkinElmer) or Analyst HT plate reader (LJL Biosciences). […]
molecule,measurement,value
2A1CV5-MCC-DM1 (conjugate) heavy: EVQLVESGGGLVKPGGSLRLSCAASGFTFGDYALSWFRQAPGKGLEWVGVSRSKAYGGTTDYAASVKGRFTISRDDSKSTAYLQMNSLKTEDTAVYYCASSGYSSGWTPFDYWGQGTLVTVSSASTKGPSVFPLAPSSKSTSGGTAALGCLVKDYFPEPVTVSWNSGALTSGVHTFPAVLQSSGLYSLSSVVTVPSSSLGTQTYICNVNHKPSNTKVDKKV[omitted - human IgG1 Fc] light: QSVLTQPPSASGTPGQRVTISCSGSSSNIGSNTVNWYQQLPGTAPKLLIFNYHQRPSGVPDRFSGSKSGSSASLAISGLQSEDEADYYCAAWDDSLNGWVFGGGTKLTVLGQPKAAPSVTLFPPSSEELQANKATLVCLISDFYPGAVTVAWKADSSPVKAGVETTTPSKQSNNKYAASSYLSLTPEQWKSHRSYSCQVTHEGSTVEKTVAPTECS,Cell line killed by BCMA ADC,Yes
